Key:
ERK = assay: p-ERK levels in primary hepatocytes (FIG. 21A); format: cell-based, mouse; settings: primary hepatocytes treated overnight
From the text: (§1) Subsequently, cells were lysed and protein extracts were immunoblotted with the indicated antibodies. […] Quantitative PCR (qPCR) of TFEB target genes in primary hepatocytes from control (flox/flox) and Tcfeb−/− (flox/flox; alb-Cre) mice. […] The expression levels are shown as % increased expression of the treated versus the corresponding untreated samples. Values represent means±s.d. of three independent hepatocyte preparations (three mice/genotype). Student's t-test (two tailed) *P-value ≦0.05.

TFEB target genes = assay: qPCR of TFEB target genes in primary hepatocytes (FIG. 21B, C); format: cell-based, mouse; settings: hepatocytes from control mice (Tcfebflox/flox)
From the text: as §1

## CCN(CC)CCCC(C)Nc1ccnc2cc(Cl)ccc12 (centres unmarked) [chloroquine]
ERK
  levels of p-ERK: unaffected
TFEB target genes
  expression of TFEB target genes: upregulated

From patent publication US20140038920A1, “TFEB PHOSPHORYLATION INHIBITORS AND USES THEREOF” (FONDAZIONE TELETHON, priority 2011, published 2014)
